Patent US20220312768A1, “COMBINATIONS OF AGROCHEMICALS WITH METABOLIC INHIBITORS” (THE BOARD OF TRUSTEES OF THE UNIVERSITY OF ARKANSAS, priority 2021, published 2022)

System: Palmer amaranth
Assay: Greenhouse experiment, GST blockers added to KFD-581-01, Palmer amaranth control and biomass reduction
Type: in vivo, Amaranthus palmi
Details: 67 g ai/ha versus 17 or 34 g ai/ha, + KFD-581-01 300 g ai/ha

Compound: O=[N+]([O-])c1ccc(Cl)c2nonc12
- Efficacy at the highest rate versus low or mid rates: decreased efficacy at the highest rate
